Laboratory results from US20240217953A1, “BICYCLIC SUBSTITUTED AROMATIC CARBOXYLIC ACID COMPOUNDS” (CHIA TAI TIANQING PHARMACEUTICAL GROUP CO., LTD., priority 2021, published 2024).
Where two headings read alike, the source gives them in different places. Each block holds one compound with its values, some of them ahead of it.

Amino acid sequences for entries named in this document (tags omitted). Residues count along the entry.
UniProt P00751, 26-764 limits assumed: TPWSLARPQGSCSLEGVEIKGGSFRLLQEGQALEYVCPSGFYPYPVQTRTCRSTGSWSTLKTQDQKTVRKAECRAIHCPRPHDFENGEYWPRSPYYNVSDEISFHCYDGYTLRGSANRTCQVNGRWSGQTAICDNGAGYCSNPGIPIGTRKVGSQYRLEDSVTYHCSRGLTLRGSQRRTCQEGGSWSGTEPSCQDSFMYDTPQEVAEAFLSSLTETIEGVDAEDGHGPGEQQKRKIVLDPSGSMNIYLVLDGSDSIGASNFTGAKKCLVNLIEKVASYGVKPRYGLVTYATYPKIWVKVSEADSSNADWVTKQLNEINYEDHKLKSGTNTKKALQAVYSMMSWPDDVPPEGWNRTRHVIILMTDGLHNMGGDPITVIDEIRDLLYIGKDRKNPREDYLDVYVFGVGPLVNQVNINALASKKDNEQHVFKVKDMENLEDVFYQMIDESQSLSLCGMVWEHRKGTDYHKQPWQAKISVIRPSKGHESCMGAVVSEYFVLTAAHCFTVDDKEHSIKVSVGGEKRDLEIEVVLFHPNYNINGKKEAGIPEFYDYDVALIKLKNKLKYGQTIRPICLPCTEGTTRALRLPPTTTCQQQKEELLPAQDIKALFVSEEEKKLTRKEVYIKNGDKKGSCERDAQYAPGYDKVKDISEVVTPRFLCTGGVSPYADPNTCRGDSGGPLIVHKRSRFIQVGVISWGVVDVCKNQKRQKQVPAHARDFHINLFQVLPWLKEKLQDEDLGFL

Key:
[1] = target: complement alternative pathway in human serum; assay: Inhibition of Wieslab complement alternative pathway activation (enzyme activity determination); conditions: read-out: IC50 for alternative pathway membrane attack complex (AP MAC), human serum diluted 1:23, Wieslab alternative pathway kit, absorbance at 405 nm
[2] = target: human complement Factor B protein (Homo sapiens, UniProt P00751); assay: Human complement Factor B protein binding determination (TR-FRET method)

IC50 ([1]; tested form: formate): < 100 nM
SMILES: CCOC1CC2CCC(c3ccc(C(=O)O)cc3)(C1)N2Cc1c(OC)cc(C)c2[nH]ccc12 (single isomer, unassigned)

IC50 [1]: < 100 nM
IC50 ([2]; read-out: IC50 for binding of human complement Factor B protein, biotinylated Factor B 25 nM, Cy5-labeled probe 75 nM, PBS pH 7.4, 2 h): < 100 nM
SMILES: CCOC1CC2CCC(c3ccc(C(=O)O)cc3)(C1)N2Cc1c(C)cc(C)c2[nH]ccc12 (stereo not shown)

IC50 ([2]; read-out: IC50 for binding of human complement Factor B protein, biotinylated Factor B 25 nM, Cy5-labeled probe 75 nM, PBS pH 7.4, 2 h, tested form: HCl): < 100 nM
SMILES: COc1cc(C)c2[nH]ccc2c1CN1C2CCC1(c1ccc(C(=O)O)cc1)CC(OC(F)F)C2 (stereo not shown)
